Values of other authors in patent US4769483A, “Cycloalkyl-substituted 4-aminophenyl derivatives and process for their preparation” (Farmitalia Carlo Erba, S.p.A., priority 1985, dated 1988).

Test system: aromatase
Conditions: literature reports; cited from earlier work

In the case of `CCC1(c2ccc(N)cc2)CCC(=O)NC1=O` (stereo not shown) [Aminoglutethimide, aminoglutethimide], the “aromatase-inhibiting action (in words)” value is listed as “more or less selective aromatase-inhibiting action”.
